The source of these data is ChEMBL document CHEMBL4680082 (J Med Chem, 2016).

Amino acid sequences for entries named in this document (tags omitted). A change or cut given only in a name is not applied to a line headed by its entry.
UniProt P28335: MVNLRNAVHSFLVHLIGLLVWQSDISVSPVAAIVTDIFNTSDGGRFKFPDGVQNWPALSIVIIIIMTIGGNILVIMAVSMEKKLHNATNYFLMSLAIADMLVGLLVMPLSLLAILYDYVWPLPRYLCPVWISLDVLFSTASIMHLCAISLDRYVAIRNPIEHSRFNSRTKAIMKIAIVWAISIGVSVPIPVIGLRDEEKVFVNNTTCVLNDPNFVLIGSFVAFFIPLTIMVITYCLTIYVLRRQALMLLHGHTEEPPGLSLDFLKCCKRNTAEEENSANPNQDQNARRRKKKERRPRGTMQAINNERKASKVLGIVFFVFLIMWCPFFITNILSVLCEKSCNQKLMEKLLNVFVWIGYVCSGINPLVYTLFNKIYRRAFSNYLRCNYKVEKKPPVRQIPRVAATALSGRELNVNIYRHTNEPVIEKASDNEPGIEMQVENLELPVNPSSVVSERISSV
UniProt P41595, whole entry: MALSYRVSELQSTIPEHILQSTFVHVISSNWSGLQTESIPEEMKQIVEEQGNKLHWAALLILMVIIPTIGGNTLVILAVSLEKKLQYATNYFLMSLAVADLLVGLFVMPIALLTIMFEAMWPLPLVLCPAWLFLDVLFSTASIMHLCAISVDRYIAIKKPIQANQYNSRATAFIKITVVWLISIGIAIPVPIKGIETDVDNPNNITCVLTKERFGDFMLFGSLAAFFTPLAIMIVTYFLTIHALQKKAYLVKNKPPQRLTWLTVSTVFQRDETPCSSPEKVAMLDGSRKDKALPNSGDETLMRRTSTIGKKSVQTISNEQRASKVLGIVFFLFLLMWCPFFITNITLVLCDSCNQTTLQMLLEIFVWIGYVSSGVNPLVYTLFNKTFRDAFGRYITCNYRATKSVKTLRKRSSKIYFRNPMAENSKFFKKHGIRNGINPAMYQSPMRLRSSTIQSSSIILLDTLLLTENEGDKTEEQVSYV
UniProt P28223, whole entry: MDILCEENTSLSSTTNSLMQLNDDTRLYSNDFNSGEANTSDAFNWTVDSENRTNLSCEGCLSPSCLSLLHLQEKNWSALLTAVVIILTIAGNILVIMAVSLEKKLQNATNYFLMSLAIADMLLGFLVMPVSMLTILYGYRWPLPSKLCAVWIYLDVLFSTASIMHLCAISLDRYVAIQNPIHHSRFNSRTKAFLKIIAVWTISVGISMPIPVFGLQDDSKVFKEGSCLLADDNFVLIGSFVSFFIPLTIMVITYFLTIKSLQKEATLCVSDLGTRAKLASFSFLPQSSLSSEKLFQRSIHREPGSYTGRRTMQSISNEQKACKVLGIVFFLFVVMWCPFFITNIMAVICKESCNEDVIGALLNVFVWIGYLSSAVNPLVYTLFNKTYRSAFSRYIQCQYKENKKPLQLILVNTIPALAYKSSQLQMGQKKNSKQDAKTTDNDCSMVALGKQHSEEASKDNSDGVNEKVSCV

Activity calls are given as the source filed them. No cut-off for these calls is given here.

The target of one assay is T1, 5-hydroxytryptamine receptor 2C (Homo sapiens, UniProt P28335). Nature of the assay: Agonist activity at human 5-HT2C receptor expressed in human Flp-In-293 cells assessed as induction of calcium flux incubated for 1 hr by Fluo-4 direct dye based FLIPR assay relative to 5-HT. The class given is functional, cell-based.
Details: not given
What is called Emax is the maximal effect, on the per cent scale that the assay sets. In the case of `CCCOc1ccc2oc(CC)cc2c1[C@@H]1C[C@H]1CN`, the Emax entry is “inactive”.

`C=CCOc1ccc2oc(CC)cc2c1[C@@H]1C[C@H]1CN`: the Emax entry is “inactive”.

Staying with this assay, now noted: filed as agonist.
Turning to `CCCOc1ccc2oc(CC)cc2c1[C@H]1C[C@@H]1CN`, the Emax was determined as 96%.

The target in the next assay is T1, 5-hydroxytryptamine receptor 2C. Nature of the assay: Agonist activity at human 5-HT2C receptor expressed in human Flp-In-293 cells assessed as induction of calcium flux by measuring log (Emax/EC50) incubated for 1 hr by Fluo-4 direct dye based FLIPR assay. In kind it is functional, cell-based.
Details: not given
In the case of `CCCOc1ccc2c(c1[C@H]1C[C@@H]1CN)CCO2`, the log(ratio) is 7.72.

For `CCCOc1ccc2oc(CC)cc2c1[C@H]1C[C@@H]1CN`, the log(ratio) amounted to 7.07.

Turning to `NC[C@@H]1C[C@H]1c1c(OCC2CC2)ccc2c1CCO2`, the log(ratio) was 6.36.

As to `CCCOc1ccc2oc(CC)cc2c1[C@@H]1C[C@H]1CN`, the “log(ratio)” value is “inactive”.

In the case of `CCCOc1ccc2occc2c1[C@H]1C[C@@H]1CN`, the log(ratio) worked out at 7.99.

As for `CCOc1ccc2oc(CC)cc2c1[C@@H]1C[C@H]1CN`, the log(ratio) is 6.82.

For the molecule `C=C(F)COc1ccc2occc2c1[C@H]1C[C@@H]1CN`, the log(ratio) amounted to 8.05.

Take `C=C(C)COc1ccc2occc2c1[C@@H]1C[C@H]1CN`: the log(ratio) stood at 6.43.

Consider `CCc1cc2c([C@H]3C[C@@H]3CN)c(OC)ccc2o1`, for which the log(ratio) was 8.57.

Turning to `CCOc1ccc2oc(CC)cc2c1[C@H]1C[C@@H]1CN`, the log(ratio) amounted to 7.82.

For `C=C(F)COc1ccc2occc2c1[C@@H]1C[C@H]1CN`, the log(ratio) is 6.97.

With `NC[C@H]1C[C@@H]1c1c(OCC2CC2)ccc2occc12`, the log(ratio) is 7.92.

For `CCCOc1ccc2c(c1[C@@H]1C[C@H]1CN)CCO2`, the log(ratio) worked out at 6.99.

Consider `CCOc1ccc2occc2c1[C@H]1C[C@@H]1CN`, for which the log(ratio) worked out at 8.61.

For the next assay, the target named is T2, 5-hydroxytryptamine receptor 2B (Homo sapiens, UniProt P41595). Nature of the assay: Agonist activity at human 5-HT2B receptor expressed in human Flp-In-293 cells assessed as induction of calcium flux incubated for 1 hr by Fluo-4 direct dye based FLIPR assay relative to 5-HT. The class given is functional, cell-based.
Details: not given
A general note: Calcium flux is commonly read through the fluorescence of an indicator in the cells.
In the case of `CCCOc1ccc2c(c1[C@H]1C[C@@H]1CN)CCO2`, the Emax is 31%.

`CCCOc1ccc2oc(CC)cc2c1[C@H]1C[C@@H]1CN`: the Emax entry is “inactive”.

For `NC[C@@H]1C[C@H]1c1c(OCC2CC2)ccc2c1CCO2`, the Emax result is “inactive”.

With `CCCOc1ccc2oc(CC)cc2c1[C@@H]1C[C@H]1CN`, the Emax result was “inactive”.

Regarding `CCCOc1ccc2occc2c1[C@H]1C[C@@H]1CN`, the Emax result was “inactive”.

Take `CCOc1ccc2oc(CC)cc2c1[C@@H]1C[C@H]1CN`: the Emax result is “inactive”.

For `C=CCOc1ccc2oc(CC)cc2c1[C@@H]1C[C@H]1CN`, the Emax entry is “inactive”.

For the molecule `CCOc1ccc2oc(CC)cc2c1[C@H]1C[C@@H]1CN`, the Emax amounted to 36%.

For `CCCOc1ccc2c(c1[C@@H]1C[C@H]1CN)CCO2`, the Emax result is “inactive”.

The same assay, now with this note: filed as agonist.
For `CCc1cc2c([C@H]3C[C@@H]3CN)c(OC)ccc2o1`, the Emax was 55%.

With `CCOc1ccc2occc2c1[C@H]1C[C@@H]1CN`, the Emax was 50%.

In the next assay the target is T2, 5-hydroxytryptamine receptor 2B. Briefly: Agonist activity at human 5-HT2B receptor expressed in human Flp-In-293 cells assessed as induction of calcium flux by measuring log(Emax/EC50) incubated for 1 hr by Fluo-4 direct dye based FLIPR assay.
Details: not given
In kind it is functional, cell-based.
Turning to `CCCOc1ccc2c(c1[C@H]1C[C@@H]1CN)CCO2`, the log(ratio) came to 6.08.

With `CCCOc1ccc2oc(CC)cc2c1[C@H]1C[C@@H]1CN`, the “log(ratio)” value is “inactive”.

Consider `NC[C@@H]1C[C@H]1c1c(OCC2CC2)ccc2c1CCO2`, for which the “log(ratio)” value was “inactive”.

`CCCOc1ccc2oc(CC)cc2c1[C@@H]1C[C@H]1CN`: the “log(ratio)” value was “inactive”.

In the case of `CCCOc1ccc2occc2c1[C@H]1C[C@@H]1CN`, the “log(ratio)” value is “inactive”.

Consider `CCOc1ccc2oc(CC)cc2c1[C@@H]1C[C@H]1CN`, for which the “log(ratio)” value was “inactive”.

With `C=C(F)COc1ccc2occc2c1[C@H]1C[C@@H]1CN`, the log(ratio) turned out to be 6.47.

As to `C=C(C)COc1ccc2occc2c1[C@@H]1C[C@H]1CN`, the log(ratio) came to 5.65.

With `CCc1cc2c([C@H]3C[C@@H]3CN)c(OC)ccc2o1`, the log(ratio) was 6.96.

Regarding `CCOc1ccc2oc(CC)cc2c1[C@H]1C[C@@H]1CN`, the log(ratio) stood at 6.07.

For the molecule `C=C(F)COc1ccc2occc2c1[C@@H]1C[C@H]1CN`, the log(ratio) is 5.7.

As for `NC[C@H]1C[C@@H]1c1c(OCC2CC2)ccc2occc12`, the log(ratio) is 6.18.

As for `CCCOc1ccc2c(c1[C@@H]1C[C@H]1CN)CCO2`, the “log(ratio)” value is “inactive”.

As for `CCOc1ccc2occc2c1[C@H]1C[C@@H]1CN`, the log(ratio) is 6.77.

Another assay deals with T3, 5-hydroxytryptamine receptor 2A (Homo sapiens, UniProt P28223). Briefly: Agonist activity at human 5-HT2A receptor expressed in human Flp-In-293 cells assessed as induction of calcium flux incubated for 1 hr by Fluo-4 direct dye based FLIPR assay relative to 5-HT. In kind it is functional, cell-based.
Details: not given
`CCCOc1ccc2c(c1[C@H]1C[C@@H]1CN)CCO2`: the maximum response (Emax) is 31%.

Consider `CCCOc1ccc2oc(CC)cc2c1[C@H]1C[C@@H]1CN`, for which the Emax result is “inactive”.

With `NC[C@@H]1C[C@H]1c1c(OCC2CC2)ccc2c1CCO2`, the Emax result was “inactive”.

For the molecule `CCCOc1ccc2oc(CC)cc2c1[C@@H]1C[C@H]1CN`, the Emax result is “inactive”.

With `CCCOc1ccc2occc2c1[C@H]1C[C@@H]1CN`, the Emax was 21%.

For `CCOc1ccc2oc(CC)cc2c1[C@@H]1C[C@H]1CN`, the Emax entry was “inactive”.

Consider `C=C(C)COc1ccc2occc2c1[C@@H]1C[C@H]1CN`, for which the Emax entry is “inactive”.

Consider `C=CCOc1ccc2oc(CC)cc2c1[C@@H]1C[C@H]1CN`, for which the Emax entry is “inactive”.

Consider `CCOc1ccc2oc(CC)cc2c1[C@H]1C[C@@H]1CN`, for which the Emax was determined as 35%.

Take `C=C(F)COc1ccc2occc2c1[C@@H]1C[C@H]1CN`: the Emax entry was “inactive”.

For `NC[C@H]1C[C@@H]1c1c(OCC2CC2)ccc2occc12`, the Emax came out at 25%.

Regarding `CCCOc1ccc2c(c1[C@@H]1C[C@H]1CN)CCO2`, the Emax entry was “inactive”.

Still in this assay, the particulars now being: filed as agonist.
Take `C=C(F)COc1ccc2occc2c1[C@H]1C[C@@H]1CN`: the Emax was determined as 49%.

`CCc1cc2c([C@H]3C[C@@H]3CN)c(OC)ccc2o1`: the Emax was found to be 72%.

In the next assay the target is T3, 5-hydroxytryptamine receptor 2A. Nature of the assay: Agonist activity at human 5-HT2A receptor expressed in human Flp-In-293 cells assessed as induction of calcium flux by measuring log(Emax/EC50) incubated for 1 hr by Fluo-4 direct dye based FLIPR assay. The class given is functional, cell-based.
Details: not given
In the case of `CCCOc1ccc2c(c1[C@H]1C[C@@H]1CN)CCO2`, the log(ratio) turned out to be 5.62.

Take `CCCOc1ccc2oc(CC)cc2c1[C@H]1C[C@@H]1CN`: the “log(ratio)” value was “inactive”.

For `NC[C@@H]1C[C@H]1c1c(OCC2CC2)ccc2c1CCO2`, the “log(ratio)” value was “inactive”.

Take `CCCOc1ccc2oc(CC)cc2c1[C@@H]1C[C@H]1CN`: the “log(ratio)” value was “inactive”.

With `CCCOc1ccc2occc2c1[C@H]1C[C@@H]1CN`, the log(ratio) worked out at 5.73.

For the molecule `CCOc1ccc2oc(CC)cc2c1[C@@H]1C[C@H]1CN`, the “log(ratio)” value is “inactive”.

Regarding `C=C(F)COc1ccc2occc2c1[C@H]1C[C@@H]1CN`, the log(ratio) was determined as 6.14.

`C=C(C)COc1ccc2occc2c1[C@@H]1C[C@H]1CN`: the “log(ratio)” value is “inactive”.

Take `CCc1cc2c([C@H]3C[C@@H]3CN)c(OC)ccc2o1`: the log(ratio) is 5.88.

With `CCOc1ccc2oc(CC)cc2c1[C@H]1C[C@@H]1CN`, the log(ratio) was 5.13.

Turning to `C=C(F)COc1ccc2occc2c1[C@@H]1C[C@H]1CN`, the “log(ratio)” value is “inactive”.

Turning to `NC[C@H]1C[C@@H]1c1c(OCC2CC2)ccc2occc12`, the log(ratio) was 5.74.

As for `CCCOc1ccc2c(c1[C@@H]1C[C@H]1CN)CCO2`, the “log(ratio)” value is “inactive”.

With `CCOc1ccc2occc2c1[C@H]1C[C@@H]1CN`, the log(ratio) was 6.82.

Another assay addresses T1, 5-hydroxytryptamine receptor 2C. The settings on record: Flp-In-293, time 1.0 hrs.
As to `CCCOc1ccc2oc(CC)cc2c1[C@@H]1C[C@H]1CN`, the pEC50 result is “inactive”.

With `C=CCOc1ccc2oc(CC)cc2c1[C@@H]1C[C@H]1CN`, the pEC50 result was “inactive”.

For another assay, the target named is T2, 5-hydroxytryptamine receptor 2B. The settings on record: Flp-In-293, time 1.0 hrs.
On to `CCCOc1ccc2oc(CC)cc2c1[C@H]1C[C@@H]1CN`, for which the pEC50 result is “inactive”.

With `NC[C@@H]1C[C@H]1c1c(OCC2CC2)ccc2c1CCO2`, the pEC50 result is “inactive”.

Regarding `CCCOc1ccc2oc(CC)cc2c1[C@@H]1C[C@H]1CN`, the pEC50 result was “inactive”.

Consider `CCCOc1ccc2occc2c1[C@H]1C[C@@H]1CN`, for which the pEC50 result is “inactive”.

For the molecule `CCOc1ccc2oc(CC)cc2c1[C@@H]1C[C@H]1CN`, the pEC50 result was “inactive”.

For the molecule `C=CCOc1ccc2oc(CC)cc2c1[C@@H]1C[C@H]1CN`, the pEC50 entry is “inactive”.

Regarding `CCCOc1ccc2c(c1[C@@H]1C[C@H]1CN)CCO2`, the pEC50 entry was “inactive”.

Another assay has as its target T3, 5-hydroxytryptamine receptor 2A. The settings on record: Flp-In-293, time 1.0 hrs.
Turning to `CCCOc1ccc2oc(CC)cc2c1[C@H]1C[C@@H]1CN`, the pEC50 entry was “inactive”.

Turning to `NC[C@@H]1C[C@H]1c1c(OCC2CC2)ccc2c1CCO2`, the pEC50 result is “inactive”.

With `CCCOc1ccc2oc(CC)cc2c1[C@@H]1C[C@H]1CN`, the pEC50 entry is “inactive”.

`CCOc1ccc2oc(CC)cc2c1[C@@H]1C[C@H]1CN`: the pEC50 entry was “inactive”.

`C=C(C)COc1ccc2occc2c1[C@@H]1C[C@H]1CN`: the pEC50 result is “inactive”.

With `C=CCOc1ccc2oc(CC)cc2c1[C@@H]1C[C@H]1CN`, the pEC50 result was “inactive”.

Regarding `C=C(F)COc1ccc2occc2c1[C@@H]1C[C@H]1CN`, the pEC50 entry was “inactive”.

With `CCCOc1ccc2c(c1[C@@H]1C[C@H]1CN)CCO2`, the pEC50 entry was “inactive”.
